Target: HLA-A*0206 (human)
Assay: HLA class I peptide binding assay, 50% inhibitory concentration

TLKYPIEHGI (modifications not checked) [ACTB 66-75 peptide …]
IC50: 26.4 µM
